From PubChem BioAssay AID652025 (National Center for Advancing Translational Sciences (NCATS), 2013)
Only a part is listed here, and it is no random draw. Calls of active or inactive are those of the source. Rule as the data show it: active = activation above about 50%; inconclusive = mostly about 30% to 49%; inactive = weaker than that.

Test: qHTS of IL-2 Activators; also: 0% is about no effect
Conditions: IL-2 activation reporter assay, cell-based qHTS; hits give high values; in transgenic mouse T cells; stimulated with anti-CD3/CD4/CD28 beads
Source text: The adaptive immune response against any infectious agent begins with the activation of an antigen specific T cell. This relatively rare and inert ("naive") T cell undergoes a massive proliferative expansion and differentiation process to generate sufficient number of potent pathogen-specific effector T cells. The effector T cells fight the infection by making cytokines and helping other cells to become fully armed as well. If any naive T cell has antigen receptors (TCRs) that can be activated by self peptides, then a variety of regulatory mechanisms kick in to prevent this cell from performing to its full potential. These processes collectively constitute the phenomenon of immunological tolerance and their failure leads to autoimmunity. One arm of tolerance involves generation of biochemical negative feedback downstream of the TCR (tuning). This is especially relevant to self antigens present in the body over long periods of time (chronic), which form the bulk of our proteome. The negative feedback serves to tune the TCR signaling, such that the ambient antigenic stimulation is nullified intracellularly. Unfortunately, this critical machinery serves as a target for chronic viral, bacterial and parasitic infections (as well as tumors), which can evade a robust immune response, simply by allowing T cells to tune down their signaling to pathogen or malignancy derived antigens. As such, disrupting the tuning in such cases would allow the tolerant T cell to function again and deliver a robust effector response.
If a therapeutic can restore responsiveness to the tuned down T cell, even for a short time, they could combat the pathogen without any additional immunization. To that end, we have developed a sensitive HTS T cell based assay based on IL-2. This assay will be screened against the Molecular Libraries Small Molecule Repository (MLSMR) to find small molecules that could elicit this response.
NIH Chemical Genomics Center [NCGC]
NIH Molecular Libraries Probe Centers Network [MLPCN]
Assay Submitter (PI): Ron Schwartz, NIAID
4 microL (750 cells/well) of unstimulated transgenic mouse T cells (columns 1-3,5-48) are dispensed into Aurora LoBase, black clear-bottom 1536-well assay plates; column 4 receives an identical concentration of transgenic memory T cells as a non-tolerant control. Compounds are then transferred via Kalypsys pin tool equipped with 1536-pin array (10 nL slotted pins, V&P Scientific, San Diego, CA). Following addition of compound and a 60 minute incubation, 1 microL of bead stimulation solution ((0.04 micron Fluospheres (Life technologies, CA) coated with 10ug/ml each anti-CD3 and anti-CD4 (clones 2C11 and GK1.5, BD Biosciences, CA) and mixed with 1ug/ml anti-CD28 (clone PV-1, BD biosciences, CA)). columns 2-48) is added to stimulate the IL-2 response pathway; media is instead added to column 1 as an unstimulated control, while PMA/ionomycin (Sigma Aldrich, MO) is added to column 3 as a control for IL-2 tolerance bypass. The plates are then incubated at 37 degrees C for 18 hours. EGFP and DsRed signal are then detected using an Acumen eX3 Explorer fluorescent plate cytometer. All cells are dispensed in cell media containing EHAA (Quality Biologicals, MD), RPMI (Quality Biologicals, MD), Glutamine (Life Technologies, CA), Penicillin/Streptomycin (Quality Biologicals, MD), 2-ME (Sigma Aldrich, MO) and 10% FBS (Gemini Bioproducts, CA) .

| Compound | activation |
| --- | --- |
| CN(C)CCOC(=O)C(O)(c1ccccc1)C1CCCC1 (stereo not given) | inactive: 1.15% |
| COc1ccccc1OP(C)(=O)Nc1ccc(Br)cc1 (stereo not given) | inactive: -1.99% |
| CN(C)C(=O)c1c([N+](=O)[O-])cc([N+](=O)[O-])cc1[N+](=O)[O-] | inactive: -0.351% |
| CC(C)(C)c1ccc(OP(C)(=O)O)cc1 | inactive: 0.563% |
| COc1ccccc1OP(C)(=O)Nc1ccccc1Br (stereo not given) | inactive: -0.972% |
| CP(=O)(Nc1ccc(Cl)cc1)Oc1ccc(F)cc1 (stereo not given) | inactive: 1.61% |
| O=C(OCCCN1CCCC1)C(O)(c1ccccc1)C1CCCCC1 (stereo not given) | inactive: 0.406% |
| COc1ccccc1OP(C)(=O)Nc1c(C)n(C)n(-c2ccccc2)c1=O (stereo not given) | inactive: -0.62% |
| CCc1ccc(OP(C)(=O)Nc2cccnc2)cc1 (stereo not given) | inactive: -0.669% |
| CP(=O)(Oc1ccccc1)N1CCOC1=O (stereo not given) | inactive: 1.61% |
| COc1ccc(OP(C)(=O)Nc2ccc(Br)cc2)cc1 (stereo not given) | inactive: 0.511% |
| CCN(CC)CC(O)COC(=O)C(O)(c1ccccc1)C1CCCCC1 (stereo not given) | inactive: -1.89% |
| CCOC(=O)c1ccc(NP(C)(=O)Oc2ccc(Cl)cc2)cc1 (stereo not given) | inactive: -2.07% |
| CP(=O)(OC12CC3CC(CC(C3)C1)C2)OC12CC3CC(CC(C3)C1)C2 | inactive: -0.597% |
| Nc1ccc2c(ccc3cccnc32)n1.O=[N+]([O-])c1cc([N+](=O)[O-])c(O)c([N+](=O)[O-])c1 | inactive: -0.666% |
| Cc1c(C(c2ccc3c(c2)OCO3)c2c(C)n(C)n(-c3ccccc3)c2=O)c(=O)n(-c2ccccc2)n1C.O=[N+]([O-])c1cc([N+](=O)[O-])c(O)c([N+](=O)[O-])c1 | inactive: -1.36% |
| O=[N+]([O-])c1ccc(OP2(=O)COCCO2)cc1 (stereo not given) | inactive: -0.0934% |
| Cc1cc(-c2cccc3ccccc23)c(C)cn1.O=[N+]([O-])c1cc([N+](=O)[O-])c(O)c([N+](=O)[O-])c1 | inactive: -2.46% |

| Compound | activation |
| --- | --- |
| CN(C)CCOC(=O)C(O)(c1ccccc1)C1CCCCC1 (stereo not given) | inactive: -0.18% |
| COc1ccc(NP(C)(=O)Oc2ccccc2OC)cc1 (stereo not given) | inactive: -1.21% |
| COc1ccc(OP(C)(=O)Nc2cccc(Br)c2)cc1 (stereo not given) | inactive: -2.66% |
| Cc1ccccc1NP(C)(=O)Nc1ccccc1C | inactive: 0.399% |
| O=[N+]([O-])c1cc([N+](=O)[O-])c(C(F)(F)F)c([N+](=O)[O-])c1O | inactive: 0.801% |
| CP(=O)(Nc1ccc2c(c1)OCCO2)Oc1ccccc1 (stereo not given) | inactive: 1.19% |
| CCOP(C)(=S)SCC(=O)NC(C)(CC)C(=O)O (stereo not given) | inactive: -0.479% |
| CP(=O)(Nc1ccc(SC(F)(F)F)cc1)Oc1ccc(F)cc1 (stereo not given) | inactive: 0.293% |
| O=C(OCCN1CCN(CCOCc2ccccc2)CC1)C(O)(c1ccccc1)c1ccccc1 | inactive: -0.0483% |
| CP(=O)(Nc1ccccc1F)Oc1ccccc1 (stereo not given) | inactive: -1.84% |
| CC(C)c1ccc(OP(C)(=O)Nc2ccc(SC(F)(F)F)cc2)cc1 (stereo not given) | inactive: -3.38% |
| CP(=O)(Nc1ccccc1)Oc1ccc(F)cc1 (stereo not given) | inactive: -1.09% |
| CCCCCOc1ccc(NP(C)(=O)Oc2ccc(Cl)cc2Cl)cc1 (stereo not given) | inactive: -3.84% |
| Cc1c([N+](=O)[O-])cc([N+](=O)[O-])c(Br)c1[N+](=O)[O-] | inactive: 2% |
| CCN(CC)CCCOC(=O)C(O)(c1ccccc1)C1CCCCC1 (stereo not given) | inactive: 0.0212% |
| CCOC(=O)c1ccc(NP(C)(=O)Oc2ccc(F)cc2)cc1 (stereo not given) | inactive: 0.395% |
| COc1ccc(OP(C)(=O)Nc2ccc(SC(F)(F)F)cc2)cc1 (stereo not given) | inactive: -0.79% |
